This passage reports IC50 results from US8324245B2.

Sequences of proteins named here, by UniProt entry; tags and fusion partners are left off. Residues count along the entry.
UniProt P08581, 25-1390 limits assumed: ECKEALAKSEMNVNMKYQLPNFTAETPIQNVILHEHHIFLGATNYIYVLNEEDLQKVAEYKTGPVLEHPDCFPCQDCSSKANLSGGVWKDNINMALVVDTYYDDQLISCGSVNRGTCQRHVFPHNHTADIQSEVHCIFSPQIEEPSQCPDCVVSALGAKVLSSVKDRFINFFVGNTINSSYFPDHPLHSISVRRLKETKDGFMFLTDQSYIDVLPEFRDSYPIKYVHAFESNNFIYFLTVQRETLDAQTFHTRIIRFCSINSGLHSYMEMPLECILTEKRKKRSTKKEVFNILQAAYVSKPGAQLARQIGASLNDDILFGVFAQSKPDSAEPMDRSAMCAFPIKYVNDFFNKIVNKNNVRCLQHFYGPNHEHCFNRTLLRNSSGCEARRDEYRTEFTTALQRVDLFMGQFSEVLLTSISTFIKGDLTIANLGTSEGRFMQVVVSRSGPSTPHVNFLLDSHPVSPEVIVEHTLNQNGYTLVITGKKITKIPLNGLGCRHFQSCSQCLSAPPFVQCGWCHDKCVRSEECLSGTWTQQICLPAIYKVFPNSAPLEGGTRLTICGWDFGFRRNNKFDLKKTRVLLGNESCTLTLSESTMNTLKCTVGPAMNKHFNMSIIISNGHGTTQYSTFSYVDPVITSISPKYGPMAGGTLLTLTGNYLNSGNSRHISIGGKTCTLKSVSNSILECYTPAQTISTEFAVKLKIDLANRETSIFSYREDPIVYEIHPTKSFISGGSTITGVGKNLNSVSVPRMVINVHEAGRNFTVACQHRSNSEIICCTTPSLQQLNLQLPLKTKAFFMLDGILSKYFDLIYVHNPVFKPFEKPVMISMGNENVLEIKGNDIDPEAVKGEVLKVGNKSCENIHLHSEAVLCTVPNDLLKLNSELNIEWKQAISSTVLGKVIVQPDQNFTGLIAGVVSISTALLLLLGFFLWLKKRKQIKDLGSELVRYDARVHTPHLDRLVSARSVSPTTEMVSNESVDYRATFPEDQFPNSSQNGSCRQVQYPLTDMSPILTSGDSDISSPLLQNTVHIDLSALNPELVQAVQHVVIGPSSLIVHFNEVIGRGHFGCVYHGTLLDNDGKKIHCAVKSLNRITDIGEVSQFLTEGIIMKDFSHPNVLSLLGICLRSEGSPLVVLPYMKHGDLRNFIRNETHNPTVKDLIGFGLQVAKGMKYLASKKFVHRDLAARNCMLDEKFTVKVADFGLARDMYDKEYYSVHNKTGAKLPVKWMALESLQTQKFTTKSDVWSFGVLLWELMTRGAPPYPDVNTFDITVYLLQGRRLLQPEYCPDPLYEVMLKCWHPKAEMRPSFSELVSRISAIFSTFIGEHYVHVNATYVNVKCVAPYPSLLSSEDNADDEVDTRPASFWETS

The test has as its target met (HGF receptor) in human gastric cancer cells MKN45 (Homo sapiens, UniProt P08581). Nature of the test: Inhibitory activity against met-autophosphorylation using ELISA method (2), MKN45 cells, HGF-independent. The format is cell-based. Background: In an ELISA, binding on a coated surface is turned into a signal by an enzyme label.
One may read the IC50 as the concentration that inhibits the measured activity by half. Lower therefore signals greater potency. With `COc1cc2nccc(Oc3ccc(NC(=O)NC(=O)CC4C5CCC4CC5)cc3)c2cc1OC` (stereo not shown), the IC50 is 293 nM.
The same measure for `COc1cc2c(Oc3ccc(NC(=S)NC(=O)Cc4ccc(F)cc4)cc3F)ccnc2cc1OCCN1CCN(C)CC1`: 39.1 nM; for `COc1cc2nccc(Oc3ccc(NC(=O)NC(=O)CNc4ccccc4C)cc3)c2cc1OC`: 1300 nM; for `COc1cc2c(Oc3ccc(NC(=S)NC(=O)Cc4cccc(Cl)c4)cc3F)ccnc2cc1OCC(O)CN1CCCC1` (stereo not shown): 42.6 nM.
